Yeast mating assay 1: variants of the scFv Ab-14

Source: Engelhart et al. 2022 (doi:10.1038/s41597-022-01779-4), MIT Lincoln Laboratory and A-Alpha Bio; data file from the FLAb repository.

Antigen: PDVDLGDISGINAS, a 14-residue peptide of the SARS-CoV-2 spike HR2 region.

Parent: Ab-14, a human scFv built as VH, the linker GGGGSGGGGSGGGGS, VL. Only the CDRs of the heavy chain vary.
VH: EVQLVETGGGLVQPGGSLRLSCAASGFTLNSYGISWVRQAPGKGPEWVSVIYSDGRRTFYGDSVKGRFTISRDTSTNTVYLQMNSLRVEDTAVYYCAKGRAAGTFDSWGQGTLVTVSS
VL: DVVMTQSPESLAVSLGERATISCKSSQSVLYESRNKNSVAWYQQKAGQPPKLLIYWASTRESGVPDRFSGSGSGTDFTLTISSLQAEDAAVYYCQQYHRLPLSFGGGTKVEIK

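The parent was found by panning a naive human phage display library on the peptide. Library AAYL49 holds single substitutions and randomly drawn double and triple substitutions in the CDRs. The scFvs were displayed on barcoded MATa yeast, the peptide on MATalpha yeast. Pairs that bind mate more often; barcode pairs of the diploids are counted by sequencing. The ratio of observed to expected reads was calibrated, replicate by replicate, on BCL2-family standards whose Kd was known from biolayer interferometry. Mating was done three times.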

Variants are written as CDR1, CDR2 and CDR3 of the heavy chain (limits as in the source). Parent: GFTLNSYGIS, VIYSDGRRTFYGDSVK, GRAAGTFDS.
The read-out is the apparent dissociation constant on a log10 scale (nM): the lower, the stronger.
The mean shown is taken over the replicates in which the pair was detected.
An entry "n.d." has no value in the source: the pair was not observed among the diploids in that replicate. This suggests poor binding but is not conclusive.
Empty control strains, which show no peptide, gave a signal in 15% of pairings with library AAYL49; the median was 4.06 and 95% of these signals were weaker than 2.83. No background was subtracted. Also given: how often the same scFv was detected with the empty control strains, with their mean in brackets.
For reference, the parent read 0.65 as the reference entry and 4.11 (one replicate of three) as a member of this library.

CDR-H1 | CDR-H2 | CDR-H3 | replicates, log10 nM | mean, log10 nM | empty controls
GFTLNSYGIS | VIYSDGQHTFYGDSVI | GRAAGTFDS | 2.80 / 2.78 / n.d. | 2.79 | 1 of 9 (2.81)
GFTLNSYGIH | VIYSDGRRTFYGDSVK | GRAAGTSDS | n.d. / n.d. / n.d. | n.d. | 1 of 9 (3.54)
GFTLNSYGIS | VIYIDGRRTFYGDSVK | GRRAGTSDS | n.d. / n.d. / n.d. | n.d. | 0 of 9
GFTLNSYGIS | VIMSDGRRTFYGDSVY | GRYAGTFDS | n.d. / 4.43 / n.d. | 4.43 | 2 of 9 (3.97)
GFTLNSYGIS | VIYLDGRLTFYCDSVK | GRAAGTFDS | n.d. / n.d. / n.d. | n.d. | 1 of 9 (4.26)
GFTLNSYGIS | VIKSDGRRTFYGYSVK | GRAALTFDS | n.d. / n.d. / n.d. | n.d. | 1 of 9 (4.17)
AFTLNSYGIS | VIYSDGRRTFYGCSVK | GRAAGCFDS | n.d. / n.d. / n.d. | n.d. | 2 of 9 (3.10)
GFTLNSYGRS | PIYSDGRRTFYCDSVK | GRAAGTFDS | n.d. / n.d. / n.d. | n.d. | 0 of 9
GNTLNSYGIN | VIYSDGRRTFYGDSVK | GRAAGYFDS | n.d. / n.d. / n.d. | n.d. | 0 of 9
GFTLNSYGIK | VIYSDGRRGFYGDSVK | GRAAGTFDS | n.d. / n.d. / 3.51 | 3.51 | 2 of 9 (3.12)
GFTLNSYGIS | VIYSDGRRTPCGDSVK | GRAAGTFRS | n.d. / n.d. / n.d. | n.d. | 0 of 9
GFTLNSYGIS | QIYSRGRRTFYGDSVK | GRAAGTFFS | n.d. / n.d. / n.d. | n.d. | 1 of 9 (3.93)
GFTLNVYGIS | VIYSDGRRTFYGDPVK | GRAAGGFDS | 3.12 / 3.27 / 3.54 | 3.31 | 0 of 9
GNTLNSYGIS | VIYSDGRRTFYGDSVK | GRAAGTFDS | 1.84 / 2.00 / 2.15 | 2.00 | 0 of 9
GFTLNSYGIS | VIYSDGRRTFYGDHVK | GRAAGTQDS | 2.60 / 2.39 / 2.37 | 2.45 | 1 of 9 (4.46)
GFTLNSYGIS | VIYSDGRETFYGDSVK | ARAAGSFDS | n.d. / 3.95 / 4.73 | 4.34 | 1 of 9 (4.40)
GFTGNSYGIS | VDYSDGWRTFYGDSVK | GRAAGTFDS | n.d. / 4.06 / 4.12 | 4.09 | 0 of 9
GFTLNSYGIS | VIYSDGRRTFYGDSQK | GRAYGTKDS | 4.92 / 4.72 / n.d. | 4.82 | 2 of 9 (3.09)
GFTLNSYGIS | VIYSDGRRTFYGDSVK | GEAAGTFDS | 0.04 / 0.37 / 0.05 | 0.15 | 1 of 9 (4.50)
GFTLESYGIS | VIYSDGWRTFYGDSVK | GLAAGTFDS | 1.69 / 1.94 / 2.12 | 1.92 | 0 of 9
GFTLNSYGIS | DIYHDGRRTFYGDSVK | GRAAGTQDS | n.d. / n.d. / n.d. | n.d. | 0 of 9
GFTLNSYGIS | FIYSDGRRTFVGDSVK | GRAAGTDDS | n.d. / n.d. / n.d. | n.d. | 0 of 9
GFTLNSYGIP | VIYSDGRRTFYGQSVK | GRAAGTFDS | 4.78 / n.d. / n.d. | 4.78 | 3 of 9 (3.79)
GFTLESYCFS | VIYSDGRRTFYGDSVK | GRAAGTFDS | 3.70 / n.d. / n.d. | 3.70 | 0 of 9
GFTLNSYGTS | VIYSDGRRTFYGTSVK | WRAAGTFDS | 5.13 / 4.66 / 5.58 | 5.12 | 6 of 9 (4.73)
GFTCNSYGQS | VIYSDGRRTFYGDSVK | GRAAYTFDS | 3.47 / n.d. / n.d. | 3.47 | 0 of 9
GFTLNDYGIS | VIYSDGRRTMYGDSVK | GSAAGTFDS | -0.01 / 0.26 / 0.09 | 0.12 | 3 of 9 (4.20)
GFVLSSYGIS | VIYSDGRRTFYGDSVK | GQAAGTFDS | 1.36 / 2.06 / 1.95 | 1.79 | 1 of 9 (4.57)
GFTLNSYGIS | VIYSDGRRTFYLDSVK | GRAAGTFDS | 1.73 / 2.02 / 2.41 | 2.05 | 0 of 9
FFTLNSYGIS | VIYSRGRRTFYTDSVK | GRAAGTFDS | 3.84 / 3.84 / n.d. | 3.84 | 3 of 9 (4.53)

Again, the first 3 entries without any signal:

CDR-H1,CDR-H2,CDR-H3,"replicates, log10 nM","mean, log10 nM",empty controls
GFTLNSYGIH,VIYSDGRRTFYGDSVK,GRAAGTSDS,n.d. / n.d. / n.d.,n.d.,1 of 9 (3.54)
GFTLNSYGIS,VIYIDGRRTFYGDSVK,GRRAGTSDS,n.d. / n.d. / n.d.,n.d.,0 of 9
GFTLNSYGIS,VIYLDGRLTFYCDSVK,GRAAGTFDS,n.d. / n.d. / n.d.,n.d.,1 of 9 (4.26)